Test system: MOLM14
Assay: Kinase inhibitor drug combination screen (MTS, Bliss-independence analysis)

C#Cc1cccc(Nc2ncnc3cc(OCCOC)c(OCCOC)cc23)c1 [Erlotinib]
fractional inhibition over Bliss prediction: MOLM14 (0.12)

Source: patent US9918972B2, “Treatment of leukemia with artemisinin derivatives and combinations with other antineoplastic agents” (UNIVERSITY OF MARYLAND, BALTIMORE, priority 2014, dated 2018)
